Results published in patent US20070161637A1, “Substituted pyridin-2-ylamine analogues” (Neurogen Corporation, priority 2003, published 2007).

The chains behind the UniProt entries cited, without tags or fusion partners.
UniProt Q8NER1, whole entry: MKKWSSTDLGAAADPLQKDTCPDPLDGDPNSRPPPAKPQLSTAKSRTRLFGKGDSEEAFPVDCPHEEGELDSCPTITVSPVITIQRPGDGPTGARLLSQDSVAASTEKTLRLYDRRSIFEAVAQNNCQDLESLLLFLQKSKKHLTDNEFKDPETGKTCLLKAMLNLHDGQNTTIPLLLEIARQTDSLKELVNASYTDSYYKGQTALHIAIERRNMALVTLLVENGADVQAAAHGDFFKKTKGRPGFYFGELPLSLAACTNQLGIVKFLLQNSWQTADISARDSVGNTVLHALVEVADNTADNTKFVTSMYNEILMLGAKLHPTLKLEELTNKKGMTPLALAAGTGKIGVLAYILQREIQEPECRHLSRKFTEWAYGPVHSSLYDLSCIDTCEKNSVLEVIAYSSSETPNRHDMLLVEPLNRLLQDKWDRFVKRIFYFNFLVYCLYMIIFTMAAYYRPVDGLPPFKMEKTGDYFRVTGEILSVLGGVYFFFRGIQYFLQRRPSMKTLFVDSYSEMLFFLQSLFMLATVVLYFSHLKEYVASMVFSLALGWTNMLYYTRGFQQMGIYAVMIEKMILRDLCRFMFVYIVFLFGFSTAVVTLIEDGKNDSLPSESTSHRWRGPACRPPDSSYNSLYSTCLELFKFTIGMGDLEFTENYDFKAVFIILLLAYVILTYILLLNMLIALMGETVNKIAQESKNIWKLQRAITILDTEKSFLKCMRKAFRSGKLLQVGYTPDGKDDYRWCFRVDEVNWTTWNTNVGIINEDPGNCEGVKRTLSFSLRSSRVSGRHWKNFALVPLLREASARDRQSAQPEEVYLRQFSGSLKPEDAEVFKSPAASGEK

Target: human capsaicin receptor (Homo sapiens, UniProt Q8NER1)
Experiment: Calcium mobilization assay, determination of antagonist activity (Example 6)
Assay type: cell-based
Details: concentration giving 50% decrease in the fluorescence response of cells expressing human capsaicin receptor exposed to capsaicin

IC50: < 1000 nM
Structure (SMILES): Cc1nc(NCc2ccccc2C(F)(F)F)nc(Nc2ccc(C(F)(F)F)cc2)n1
